Test results published in US12042560B2, “Liposome composition” (Eisai R&D Management Co., Ltd., priority 2009, dated 2024).

Assay: physchem

SMILES: C=C1C[C@@H]2CC[C@@]34C[C@H]5O[C@H]6[C@@H](O3)[C@H]3O[C@H](CC[C@@H]3O[C@H]6[C@H]5O4)CC(=O)C[C@@H]3[C@@H](OC)[C@@H](C[C@H](O)CN)O[C@H]3C[C@H]3O[C@@H](CC[C@@H]1O2)C[C@@H](C)C3=C [Eribulin mesylate, eribulin mesylate]
- pKa: 9.6

Structures can show the parent of a compound that is named as a salt.
